Test [1] concerns the target T1, QR1 (Homo sapiens, UniProt P15559). Briefly: QR1 selectivity assay, fluorescence. The conditions noted are these: read-out: QR1 IC50 Fluorescence; Supplementary Table 1.
For test [2], the target named is T1, QR1. Briefly: QR1 selectivity assay, absorbance. Conditions: read-out: QR1 IC50 Absorbance; Supplementary Table 1.
Test [3] concerns the target T2, QR2 (Homo sapiens, UniProt P16083). In words: QR2 orthogonal assay, BNAH absorbance at 350 nm. The conditions noted are these: read-out: QR2 IC50 Absorbance; Supplementary Table 1.
Test [4] concerns THLE-2 cells. Briefly: ATP depletion cell toxicity assay (CellTiter Glo), 72 h. Conditions: read-out: THLE2 IC50, 72 h exposure. A general note: ATP-based viability assays read luminescence as a measure of living cells.
The target in test [5] is T2, QR2. Briefly: QR2 activity assay, BNAH fluorescence (standard/primary). Conditions: read-out: QR2 IC50 Fluorescence; Supplementary Table 1.

Amino acid sequences for entries named in this document (tags omitted).
UniProt P15559, whole entry: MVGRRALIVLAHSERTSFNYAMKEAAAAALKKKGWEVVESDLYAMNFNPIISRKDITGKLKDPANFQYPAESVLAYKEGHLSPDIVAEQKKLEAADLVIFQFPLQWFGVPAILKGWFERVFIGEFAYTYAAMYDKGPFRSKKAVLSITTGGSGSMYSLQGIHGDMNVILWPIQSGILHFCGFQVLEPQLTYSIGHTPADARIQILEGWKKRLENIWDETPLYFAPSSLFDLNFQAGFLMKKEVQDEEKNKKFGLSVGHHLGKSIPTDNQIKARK
UniProt P16083, whole entry: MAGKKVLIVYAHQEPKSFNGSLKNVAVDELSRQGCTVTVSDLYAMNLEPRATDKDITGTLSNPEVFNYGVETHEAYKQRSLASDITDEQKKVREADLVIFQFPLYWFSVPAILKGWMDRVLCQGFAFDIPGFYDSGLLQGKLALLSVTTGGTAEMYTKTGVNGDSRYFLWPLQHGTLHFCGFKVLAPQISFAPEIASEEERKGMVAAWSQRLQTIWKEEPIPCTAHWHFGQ

Broadly, the IC50 is the concentration at which inhibition is half-maximal. Regarding `Cc1cnc2c(S(=O)(=O)N(C)C(C)c3ccc(S(C)(=O)=O)cc3)cccc2c1` (stereo not drawn), the IC50 is more than 9.9 µM in test [1]; more than 9.99 µM in test [2]; 0.87 µM in test [3]; 31.7 µM in test [4]; 1.22 µM in test [5].

In the case of `Cn1cc(C2=CCN(S(=O)(=O)c3cccc4cccnc34)CC2)c2cccnc21`, the IC50 in test [1] is 7.98 µM; in test [2] it was 5.98 µM; in test [3] it was 7.15 µM; in test [5], more than 9.9 µM.
